Hits are enriched below; roughly 16% of the tested compounds scored in any of these assays.
miR-21 reporter – miR-21 reporter, rising signal | 340,000 tested, under 10 active | AID 2288 | HeLa miR-21 FLuc reporter, luciferase, 48 h | Potency, µM (titrated, usually from 38.3 µM); active = well fitted rising curve with a large enough effect; inconclusive = small, poorly fitted or top-dose-only effect; inactive = no such curve, though single readings can be large or run the other way;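 further: miR-21 action dims this reporter so a rising signal means less miR-21 action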
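HeLa cells stably expressing CMV-driven firefly luciferase with a downstream miR-21 binding sequence, endogenously expressing miR-21, were treated with titrations (up to about 40uM final) for 48 hours at 37 degree Celsius. Luciferase luminescence was read after lysis.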
DT40 TDP1 CPT – growth inhibition of DT40 Tdp1-/-;hTDP1 cells with camptothecin (screen for TDP1 inhibitors); chicken DT40 Tdp1-/-;hTDP1 cells + 20 nM CPT, ATP luminescence, 48 h; Potency, µM (doses to about 46.2 µM), hits mostly inhibitors; actives 12% (n = 420,000); AID 686979; further: nearly all actives have a fitted effect of over 55% in size
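Chicken DT40 Tdp1-/- cells complemented with human TDP1, 400 cells/well, exposed to compounds plus 20 nM camptothecin for at least 48 h at 37 C; viability read as ATP content by CellTiter-Glo luminescence.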
uPA surface inh – inhibitors of cell surface uPA generation; actives 0.31% (n = 330,000); AID 540303; cell surface uPA generation assay, qHTS; Potency, µM (series often up to 38.3 µM), most hits filed as inhibitors; active means well fitted inhibition curve with a large enough effect; inconclusive means small, poorly fitted or top-dose-only effect; inactive means no such curve, though single readings can be large or run the other way; tested in mouse RAW 264.7 cells; further: nearly all actives have a fitted effect of over 55% in size
TDP1 block – TDP1 (human) enzyme inhibition; actives 0.28% (n = 350,000); Potency, µM (titrated, usually from 130 µM), hits mostly inhibitors; AID 485290; recombinant TDP1, AlphaScreen DNA substrate cleavage; further: nearly all actives have a fitted effect of over 40% in size
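Tdp1 1 nM final; 15 min RT w/ cpd; substrate 15 nM, 5 min; beads 10 ug/ml, 10 min; AlphaScreen read. Neg ctrl: no enzyme.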
TDP1 cell noCPT – qHTS for Inhibitors of human tyrosyl-DNA phosphodiesterase 1 (TDP1): qHTS in cells in absence of CPT; DT40 Tdp1-/- hTDP1 cells, no CPT, ATP luminescence, 48 h; Potency, µM (highest dose often 46.2 µM), usual class: inhibitors; actives 15% (n = 420,000); AID 686978, 2013; further: nearly all actives have a fitted effect of over 55% in size
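Growth kinetics read by CellTiter-Glo luminescence after ≥48 hr at 37 °C. Cells: DT40 Tdp1-/- stably carrying human TDP1, 400 per well, compound exposure in the absence of CPT (DMSO vehicle).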
Hits are given with their value. Unless noted, the call rests on the fitted dose curve; in most records, active means well fitted curve in the direction sought with a large enough effect; inconclusive means small, poorly fitted or top-dose-only effect, or another doubt; inactive means no such curve, though single readings can be large; an effect the other way counts as inactive or inconclusive.

O=C(Nc1ccc(F)cc1)c1oc2ccccc2c1NC(=O)C1CCCC1 was read as miR-21 reporter inactive, DT40 TDP1 CPT inconclusive, uPA surface inh inactive, TDP1 block inactive and TDP1 cell noCPT 18µM.
CCOc1ccc(NC(=O)c2oc3ccccc3c2NC(=O)C2CCCCC2)cc1 was read as miR-21 reporter inactive, DT40 TDP1 CPT inactive, TDP1 block inactive and TDP1 cell noCPT inconclusive.
O=C1/C(=C/c2ccccc2)NC(=S)N1C(c1ccccc1)c1ccccc1 was read as miR-21 reporter inactive, DT40 TDP1 CPT 4.6µM, uPA surface inh inactive, TDP1 block inactive and TDP1 cell noCPT 5.8µM.
For O=C1/C(=C/c2ccccc2)Nc2ccccc21 the results were miR-21 reporter inactive, DT40 TDP1 CPT inactive, TDP1 block inactive and TDP1 cell noCPT inactive.
O=S(=O)(c1ccccc1)N(c1ccccc1)S(=O)(=O)c1ccccc1 was read as DT40 TDP1 CPT inconclusive, uPA surface inh inactive and TDP1 cell noCPT inactive.
CCCCn1c(N)c(N(CC(C)C)C(=O)c2ccc(N(C)S(=O)(=O)c3ccc(C)cc3)cc2)c(=O)[nH]c1=O was read as DT40 TDP1 CPT inactive, uPA surface inh inactive and TDP1 cell noCPT inactive.
CC1=CC(C)(C)NC(=S)N1c1ccccc1C was read as miR-21 reporter inactive, DT40 TDP1 CPT inconclusive, uPA surface inh inactive, TDP1 block inactive and TDP1 cell noCPT 26µM.
`Clc1ccccc1CNc1nc2ccccc2c2nc(-c3ccccc3)nn12` gave miR-21 reporter inactive, DT40 TDP1 CPT inactive, TDP1 block inactive and TDP1 cell noCPT inactive.
For CCCCNC(=O)CCC(=O)NNc1nc2ccccc2c2nc(C)nn12 the results were miR-21 reporter inactive, DT40 TDP1 CPT inactive, uPA surface inh inactive, TDP1 block inactive and TDP1 cell noCPT inconclusive.
`c1ccc(CNc2nc3ccccc3c3nc(-c4ccccc4)nn23)cc1` gave miR-21 reporter inactive, DT40 TDP1 CPT inconclusive, TDP1 block inactive and TDP1 cell noCPT 2.6µM.
For CCCCNC(=O)CCC(=O)NNc1nc2ccccc2c2nc(-c3ccccc3)nn12 the results were miR-21 reporter inactive, DT40 TDP1 CPT inconclusive, uPA surface inh inactive, TDP1 block inactive and TDP1 cell noCPT 23µM.
Clc1ccc(CCNc2nc3ccccc3c3nc(-c4ccccc4)nn23)cc1 was read as miR-21 reporter inactive, DT40 TDP1 CPT inconclusive, TDP1 block inactive and TDP1 cell noCPT 12µM.
For CCCCNc1nc2ccccc2c2nc(-c3ccccc3)nn12 the results were miR-21 reporter inactive, DT40 TDP1 CPT inconclusive, TDP1 block inactive and TDP1 cell noCPT 21µM.
Screening O=C(NC1CC(=O)N(c2ccccc2)C1)c1ccc(Br)o1 (configuration not stated) returned miR-21 reporter inactive, DT40 TDP1 CPT inactive, TDP1 block inactive and TDP1 cell noCPT inactive.
`COC(=O)Cn1c(=O)c2c(nc3n2CCN3c2ccc(F)cc2)n(C)c1=O` gave miR-21 reporter inactive, DT40 TDP1 CPT inactive, TDP1 block inactive and TDP1 cell noCPT inactive.
`Clc1ccc(C#Cc2cccnc2)cc1` gave DT40 TDP1 CPT inactive, uPA surface inh inactive, TDP1 block inactive and TDP1 cell noCPT inactive.
Clc1ncc(C#Cc2ccccc2)c2ncncc12 was read as DT40 TDP1 CPT 1.4µM, TDP1 block inactive and TDP1 cell noCPT 0.79µM.
CNS(=O)(=O)c1cc(NC(=O)c2cnc(SC)n2-c2ccccc2)ccc1C was read as miR-21 reporter inactive, DT40 TDP1 CPT inconclusive, uPA surface inh inactive, TDP1 block inactive and TDP1 cell noCPT 15µM.
Screening CCCc1nn2c(=O)cc(COC(=O)c3ccc(NC(=O)COc4ccccc4)cc3)nc2s1 returned miR-21 reporter inactive, DT40 TDP1 CPT inactive, TDP1 block inactive and TDP1 cell noCPT inactive.
`Cc1nc(NC(=O)C(C)(C)C)sc1C(=O)Cn1cc(CCc2ccccc2)nn1` gave DT40 TDP1 CPT inactive and TDP1 cell noCPT inconclusive.
Screening CCCCc1ccc(NC(=O)c2ccc(=O)n(Cc3cccc(C)c3)c2)cc1 returned miR-21 reporter inconclusive, DT40 TDP1 CPT inconclusive, TDP1 block inactive and TDP1 cell noCPT 18µM.
For COC(=O)c1ccccc1NC(=O)c1ccc(=O)n(Cc2cccc(C)c2)c1 the results were miR-21 reporter inactive, DT40 TDP1 CPT inconclusive, TDP1 block inactive and TDP1 cell noCPT inconclusive.
Screening C/C(=C\c1ccccc1)CN1CCC(C(=O)N2CCCC(C)C2)CC1 (configuration not stated) returned miR-21 reporter inactive, DT40 TDP1 CPT inconclusive, uPA surface inh inactive, TDP1 block inactive and TDP1 cell noCPT inconclusive.
`N#Cc1cnn(-c2ccccc2)c1NC(=O)CN1CCN(c2ccccc2)CC1` gave miR-21 reporter inactive, DT40 TDP1 CPT inconclusive, uPA surface inh inactive, TDP1 block inactive and TDP1 cell noCPT 23µM.
`N#Cc1cnn(-c2ccccc2)c1NC(=O)CN1CCOCC1` gave miR-21 reporter inactive, DT40 TDP1 CPT inactive, uPA surface inh inactive, TDP1 block inactive and TDP1 cell noCPT inactive.
`CC(=O)N1CCN(CC(=O)Nc2sccc2C#N)CC1` gave miR-21 reporter inactive, DT40 TDP1 CPT inactive, uPA surface inh inactive, TDP1 block inactive and TDP1 cell noCPT inactive.
`Cc1cc(C)c(C)c(S(=O)(=O)N2CCN(CC(=O)Nc3sccc3C#N)CC2)c1C` gave miR-21 reporter inactive, DT40 TDP1 CPT 26µM, uPA surface inh inactive, TDP1 block inactive and TDP1 cell noCPT inconclusive.
`N#Cc1ccsc1NC(=O)CN1CCN(c2ccccc2)CC1` gave miR-21 reporter inactive, DT40 TDP1 CPT inactive, uPA surface inh inactive, TDP1 block inactive and TDP1 cell noCPT inactive.
`N#Cc1ccsc1NC(=O)CN1CCN(c2ccc(O)cc2)CC1` gave miR-21 reporter inactive, DT40 TDP1 CPT inconclusive, uPA surface inh inactive, TDP1 block inactive and TDP1 cell noCPT 10µM.
`NC(=O)c1ccsc1NC(=O)CN1CCN(S(=O)(=O)c2ccccc2C(F)(F)F)CC1` gave DT40 TDP1 CPT inconclusive, uPA surface inh inactive and TDP1 cell noCPT inconclusive.
COc1ccc(S(=O)(=O)N2CCN(CC(=O)Nc3sccc3C(N)=O)CC2)cc1OC was read as DT40 TDP1 CPT inconclusive, uPA surface inh inactive, TDP1 block inactive and TDP1 cell noCPT 23µM.
Screening CN(C)c1ccc(-n2c(CCC(=O)O)ccc2-c2ccccc2)cc1 returned miR-21 reporter inactive, DT40 TDP1 CPT inactive, TDP1 block inactive and TDP1 cell noCPT inactive.
O=C(Cn1c(=O)c2ccccc2n(CC(=O)N2CCCCC2)c1=O)N1CCCCC1 was read as miR-21 reporter inactive, DT40 TDP1 CPT inactive, uPA surface inh inactive and TDP1 cell noCPT inactive.
For O=C(N/N=C/c1cccnc1)/C(=C\c1cccs1)NC(=O)c1ccccc1 the results were miR-21 reporter inactive, DT40 TDP1 CPT inactive, uPA surface inh inactive, TDP1 block inactive and TDP1 cell noCPT inactive.

Screening results deposited in PubChem BioAssay by National Center for Advancing Translational Sciences (NCATS).
